In paper PMC12102759 (Protein Science : A Publication of the Protein Society, 2025):

What was measured:
YES SH3 = assay type: binding, human
AP2M1 MU = assay type: binding, human

Row | Substance | PSSM value of the single amino acid variant (DMS by phage display) (YES SH3) | other results
1 | TSSIQSRPLPSPPKFT L9L | 0.3626 | 
2 | TSSIQSRPLPSPPKFT Q5Q | 0.04456 | 
3 | TSSIQSRPLPSPPKFT K14D (TSSIQSRPLPSPPDFT) | 0.05842 | 
4 | TSSIQSRPLPSPPKFT P10K (TSSIQSRPLKSPPKFT) | 0.06583 | 
5 | TSSIQSRPLPSPPKFT Q5F (TSSIFSRPLPSPPKFT) | 0.007998 | 
6 | TSSIQSRPLPSPPKFT P10D (TSSIQSRPLDSPPKFT) | 0 | 
7 | TSSIQSRPLPSPPKFT S6Q (TSSIQQRPLPSPPKFT) | 0.004525 | 
8 | TSSIQSRPLPSPPKFT P8V (TSSIQSRVLPSPPKFT) | 0.1254 | 
9 | TSSIQSRPLPSPPKFT L9N (TSSIQSRPNPSPPKFT) | 0 | 
10 | TSSIQSRPLPSPPKFT Q5E (TSSIESRPLPSPPKFT) | 0.002526 | 
11 | TSSIQSRPLPSPPKFT P13G (TSSIQSRPLPSPGKFT) | 0.06123 | 
12 | TSSIQSRPLPSPPKFT P8P | 0.1354 | 
13 | TSSIQSRPLPSPPKFT S3W (TSWIQSRPLPSPPKFT) | 0.008472 | 
14 | TSSIQSRPLPSPPKFT S3H (TSHIQSRPLPSPPKFT) | 0.02032 | 
15 | TSSIQSRPLPSPPKFT S3K (TSKIQSRPLPSPPKFT) | 0.0006253 | 
16 | TSSIQSRPLPSPPKFT S2T (TTSIQSRPLPSPPKFT) | 0.2103 | 
17 | TSSIQSRPLPSPPKFT P13L (TSSIQSRPLPSPLKFT) | 0.3368 | 
18 | TSSIQSRPLPSPPKFT S6T (TSSIQTRPLPSPPKFT) | 0.01059 | 
19 | TSSIQSRPLPSPPKFT I4E (TSSEQSRPLPSPPKFT) | 0.05255 | 
20 | TSSIQSRPLPSPPKFT F15A (TSSIQSRPLPSPPKAT) | 0.01991 | 
21 | TSSIQSRPLPSPPKFT P12L (TSSIQSRPLPSLPKFT) | 0.2921 | 
22 | TSSIQSRPLPSPPKFT S11A (TSSIQSRPLPAPPKFT) | 0.01542 | 
23 | TSSIQSRPLPSPPKFT S6W (TSSIQWRPLPSPPKFT) | 0.01116 | 

Row | Substance | PSSM value of the single amino acid variant (DMS by phage display) (YES SH3) | other results
24 | TSSIQSRPLPSPPKFT Q5N (TSSINSRPLPSPPKFT) | 0.2346 | 
25 | TSSIQSRPLPSPPKFT P10G (TSSIQSRPLGSPPKFT) | 0 | 
26 | TSSIQSRPLPSPPKFT F15Y (TSSIQSRPLPSPPKYT) | 0.01537 | 
27 | TSSIQSRPLPSPPKFT K14L (TSSIQSRPLPSPPLFT) | 0.09563 | 
28 | TSSIQSRPLPSPPKFT S6I (TSSIQIRPLPSPPKFT) | 0.03658 | 
29 | TSSIQSRPLPSPPKFT K14P (TSSIQSRPLPSPPPFT) | 0.01361 | 
30 | TSSIQSRPLPSPPKFT S2D (TDSIQSRPLPSPPKFT) | 0.02893 | 
31 | TSSIQSRPLPSPPKFT K14E (TSSIQSRPLPSPPEFT) | 0.02138 | 
32 | TSSIQSRPLPSPPKFT K14W (TSSIQSRPLPSPPWFT) | 0.01378 | 
33 | TSSIQSRPLPSPPKFT K14A (TSSIQSRPLPSPPAFT) | 0.02167 | 
34 | TSSIQSRPLPSPPKFT Q5V (TSSIVSRPLPSPPKFT) | 0.005919 | 
35 | TSSIQSRPLPSPPKFT P8R (TSSIQSRRLPSPPKFT) | 0.02901 | 
36 | TSSIQSRPLPSPPKFT P13Q (TSSIQSRPLPSPQKFT) | 0.07138 | 
37 | TSSIQSRPLPSPPKFT S2L (TLSIQSRPLPSPPKFT) | 0.008733 | 
38 | TSSIQSRPLPSPPKFT P13V (TSSIQSRPLPSPVKFT) | 0.009368 | 
39 | TSSIQSRPLPSPPKFT S2A (TASIQSRPLPSPPKFT) | 0.04994 | 
40 | TSSIQSRPLPSPPKFT S3E (TSEIQSRPLPSPPKFT) | 0 | 
41 | TSSIQSRPLPSPPKFT S3Y (TSYIQSRPLPSPPKFT) | 0.04396 | 
42 | TSSIQSRPLPSPPKFT F15T (TSSIQSRPLPSPPKTT) | 0.001679 | 
43 | TSSIQSRPLPSPPKFT P12S (TSSIQSRPLPSSPKFT) | 0.02371 | 
44 | TSSIQSRPLPSPPKFT Q5S (TSSISSRPLPSPPKFT) | 0.03028 | 
45 | TSSIQSRPLPSPPKFT P10V (TSSIQSRPLVSPPKFT) | 0.1886 | 
46 | TSSIQSRPLPSPPKFT S3D (TSDIQSRPLPSPPKFT) | 0 | 

Row | Substance | PSSM value of the single amino acid variant (DMS by phage display) (YES SH3) | other results
47 | TSSIQSRPLPSPPKFT S6E (TSSIQERPLPSPPKFT) | 0.1169 | 
48 | TSSIQSRPLPSPPKFT P12T (TSSIQSRPLPSTPKFT) | 0.09906 | 
49 | TSSIQSRPLPSPPKFT S2I (TISIQSRPLPSPPKFT) | 0.01043 | 
50 | TSSIQSRPLPSPPKFT Q5H (TSSIHSRPLPSPPKFT) | 0.138 | 
51 | TSSIQSRPLPSPPKFT P10W (TSSIQSRPLWSPPKFT) | 0 | 
52 | TSSIQSRPLPSPPKFT L9Y (TSSIQSRPYPSPPKFT) | 0 | 
53 | TSSIQSRPLPSPPKFT P13D (TSSIQSRPLPSPDKFT) | 0.0342 | 
54 | TSSIQSRPLPSPPKFT I4F (TSSFQSRPLPSPPKFT) | 0.0116 | 
55 | TSSIQSRPLPSPPKFT P8G (TSSIQSRGLPSPPKFT) | 0.05758 | 
56 | TSSIQSRPLPSPPKFT P13N (TSSIQSRPLPSPNKFT) | 0.01232 | 
57 | TSSIQSRPLPSPPKFT I4A (TSSAQSRPLPSPPKFT) | 0.05992 | 
58 | TSSIQSRPLPSPPKFT T1H (HSSIQSRPLPSPPKFT) | 0.06859 | 
59 | TSSIQSRPLPSPPKFT P10P | 0.5995 | 
60 | TSSIQSRPLPSPPKFT P13I (TSSIQSRPLPSPIKFT) | 0.177 | 
61 | TSSIQSRPLPSPPKFT P8T (TSSIQSRTLPSPPKFT) | 0.03806 | 
62 | TSSIQSRPLPSPPKFT K14K | 0.007071 | 
63 | TSSIQSRPLPSPPKFT S3V (TSVIQSRPLPSPPKFT) | 0.03603 | 
64 | TSSIQSRPLPSPPKFT P10M (TSSIQSRPLMSPPKFT) | 0 | 
65 | TSSIQSRPLPSPPKFT F15Q (TSSIQSRPLPSPPKQT) | 0.009042 | 
66 | TSSIQSRPLPSPPKFT S6V (TSSIQVRPLPSPPKFT) | 0.03199 | 
67 | TSSIQSRPLPSPPKFT P8S (TSSIQSRSLPSPPKFT) | 0.03937 | 
68 | TSSIQSRPLPSPPKFT P8H (TSSIQSRHLPSPPKFT) | 0.02625 | 
69 | TSSIQSRPLPSPPKFT S11H (TSSIQSRPLPHPPKFT) | 0.03933 | 

Row | Substance | PSSM value of the single amino acid variant (DMS by phage display) (YES SH3) | other results
70 | TSSIQSRPLPSPPKFT L9I (TSSIQSRPIPSPPKFT) | 0.2099 | 
71 | TSSIQSRPLPSPPKFT P10S (TSSIQSRPLSSPPKFT) | 0 | 
72 | TSSIQSRPLPSPPKFT S11V (TSSIQSRPLPVPPKFT) | 0.07552 | 
73 | VSDIDYVPLKSATA(averaged) D3D |  | PSSM value of the substitution, averaged over the two overlapping peptides (AP2M1 MU): 0.04227
74 | QVVSDIDYVPLKSATA S13G (QVVSDIDYVPLKGATA) |  | PSSM value of the substitution (DMS by phage display) (AP2M1 MU): 0.0002734
75 | QVVSDIDYVPLKSATA D7T (QVVSDITYVPLKSATA) |  | PSSM value of the substitution (DMS by phage display) (AP2M1 MU): 0.1574
76 | QVVSDIDYVPLKSATA L11I (QVVSDIDYVPIKSATA) |  | PSSM value of the substitution (DMS by phage display) (AP2M1 MU): 0.2926
77 | VSDIDYVPLKSATA(averaged) L9H (VSDIDYVPHKSATA) |  | PSSM value of the substitution, averaged over the two overlapping peptides (AP2M1 MU): 0
78 | VSDIDYVPLKSATAIT Y6T (VSDIDTVPLKSATAIT) |  | PSSM value of the substitution (DMS by phage display) (AP2M1 MU): 0
79 | QVVSDIDYVPLKSATA S4S |  | PSSM value of the substitution (DMS by phage display) (AP2M1 MU): 0.01383
80 | VSDIDYVPLKSATA(averaged) K10Q (VSDIDYVPLQSATA) |  | PSSM value of the substitution, averaged over the two overlapping peptides (AP2M1 MU): 5.325e-5
81 | VSDIDYVPLKSATAIT D3G (VSGIDYVPLKSATAIT) |  | PSSM value of the substitution (DMS by phage display) (AP2M1 MU): 0
82 | QVVSDIDYVPLKSATA V9G (QVVSDIDYGPLKSATA) |  | PSSM value of the substitution (DMS by phage display) (AP2M1 MU): 0
83 | QVVSDIDYVPLKSATA K12G (QVVSDIDYVPLGSATA) |  | PSSM value of the substitution (DMS by phage display) (AP2M1 MU): 0.0008504
84 | VSDIDYVPLKSATA(averaged) A12A |  | PSSM value of the substitution, averaged over the two overlapping peptides (AP2M1 MU): 0.005606
85 | VSDIDYVPLKSATA(averaged) K10L (VSDIDYVPLLSATA) |  | PSSM value of the substitution, averaged over the two overlapping peptides (AP2M1 MU): 0.001652
86 | VSDIDYVPLKSATA(averaged) D3N (VSNIDYVPLKSATA) |  | PSSM value of the substitution, averaged over the two overlapping peptides (AP2M1 MU): 0.09903
87 | QVVSDIDYVPLKSATA T15W (QVVSDIDYVPLKSAWA) |  | PSSM value of the substitution (DMS by phage display) (AP2M1 MU): 0.04319
88 | VSDIDYVPLKSATAIT D5S (VSDISYVPLKSATAIT) |  | PSSM value of the substitution (DMS by phage display) (AP2M1 MU): 0.0007803
89 | VSDIDYVPLKSATAIT D3P (VSPIDYVPLKSATAIT) |  | PSSM value of the substitution (DMS by phage display) (AP2M1 MU): 0.1041
90 | QVVSDIDYVPLKSATA S4T (QVVTDIDYVPLKSATA) |  | PSSM value of the substitution (DMS by phage display) (AP2M1 MU): 0
91 | VSDIDYVPLKSATAIT I4V (VSDVDYVPLKSATAIT) |  | PSSM value of the substitution (DMS by phage display) (AP2M1 MU): 0
